This is an account of results in EP2330125A2 (priority 2005, dated 2007).

Chains of the proteins cited; added tags and fusions are not shown. Residues count along the entry.
UniProt O60894, 27-148 partner: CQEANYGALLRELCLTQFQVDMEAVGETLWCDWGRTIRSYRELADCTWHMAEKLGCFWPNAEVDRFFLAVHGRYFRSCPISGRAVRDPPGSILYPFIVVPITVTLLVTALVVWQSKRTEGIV
UniProt Q16602, 23-461: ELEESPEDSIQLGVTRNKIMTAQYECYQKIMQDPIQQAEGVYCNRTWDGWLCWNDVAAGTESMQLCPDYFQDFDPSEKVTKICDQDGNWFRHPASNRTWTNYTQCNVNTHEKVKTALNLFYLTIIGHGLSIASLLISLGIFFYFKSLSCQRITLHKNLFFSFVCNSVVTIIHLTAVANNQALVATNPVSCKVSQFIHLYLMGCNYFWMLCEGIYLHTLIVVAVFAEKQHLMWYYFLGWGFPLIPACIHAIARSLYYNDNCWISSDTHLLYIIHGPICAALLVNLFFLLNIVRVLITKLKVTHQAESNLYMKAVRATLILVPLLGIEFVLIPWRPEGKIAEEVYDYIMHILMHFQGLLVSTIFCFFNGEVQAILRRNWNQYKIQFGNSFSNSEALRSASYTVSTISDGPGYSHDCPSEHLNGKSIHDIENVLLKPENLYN
UniProt P49146, whole entry: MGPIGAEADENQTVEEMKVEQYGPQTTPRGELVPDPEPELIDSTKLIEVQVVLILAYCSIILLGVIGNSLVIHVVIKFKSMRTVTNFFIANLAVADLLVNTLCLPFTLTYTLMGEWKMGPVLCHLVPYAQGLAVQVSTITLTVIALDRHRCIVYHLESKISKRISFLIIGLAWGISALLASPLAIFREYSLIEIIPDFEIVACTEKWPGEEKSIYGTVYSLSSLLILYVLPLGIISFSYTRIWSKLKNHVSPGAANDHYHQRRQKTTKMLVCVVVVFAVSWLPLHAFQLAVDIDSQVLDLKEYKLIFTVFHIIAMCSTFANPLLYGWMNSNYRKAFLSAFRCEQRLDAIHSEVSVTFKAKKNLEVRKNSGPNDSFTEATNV

pEC50, pIC50: −log10 of the molar value. Where two headings read alike, the source gives them in different places.

The target of one data set is T1, CGRP receptors (Homo sapiens, UniProt O60894+Q16602).
T1 construct: SK-N-MC and L6 cells expressing endogenous CGRP receptors; endogenous in cells; host or cells: SK-N-MC cell membranes
It is filed as binding.

For the next data set, the target named is T2, GLP-1 receptor (Rattus norvegicus, UniProt P32301).
T2 construct: the receptor source is RINm5F cell membranes; endogenous in cells; host or cells: RINm5F cell membranes
T2 sequence (P32301 22-463): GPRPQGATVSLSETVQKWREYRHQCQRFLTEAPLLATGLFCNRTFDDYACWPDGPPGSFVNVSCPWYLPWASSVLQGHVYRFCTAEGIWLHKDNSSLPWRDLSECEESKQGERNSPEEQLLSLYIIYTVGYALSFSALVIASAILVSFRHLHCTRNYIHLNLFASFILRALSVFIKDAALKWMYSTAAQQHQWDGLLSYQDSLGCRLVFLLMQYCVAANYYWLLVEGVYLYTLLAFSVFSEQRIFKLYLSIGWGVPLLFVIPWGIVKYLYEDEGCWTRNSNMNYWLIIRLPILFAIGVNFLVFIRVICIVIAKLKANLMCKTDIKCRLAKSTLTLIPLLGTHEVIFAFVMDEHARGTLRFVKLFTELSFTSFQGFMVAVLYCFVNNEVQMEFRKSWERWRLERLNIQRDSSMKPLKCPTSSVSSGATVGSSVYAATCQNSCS
It is filed as binding.

Data set [1] addresses T3, neuropeptide Y2 receptors (Homo sapiens, UniProt P49146).
T3 construct: SK-N-BE cells that endogenously expresses the neuropeptide Y2 receptors; endogenous in cells; host or cells: SK-N-BE cell membranes
The following applies: read-out: Receptor Binding Y2.

In a further data set the target is T4, CT receptor (Rattus norvegicus, UniProt P32214).
T4 construct: host or cells: 'C1A' (not explained)
T4 sequence (P32214 25-479 isoform P32214-2 limits assumed): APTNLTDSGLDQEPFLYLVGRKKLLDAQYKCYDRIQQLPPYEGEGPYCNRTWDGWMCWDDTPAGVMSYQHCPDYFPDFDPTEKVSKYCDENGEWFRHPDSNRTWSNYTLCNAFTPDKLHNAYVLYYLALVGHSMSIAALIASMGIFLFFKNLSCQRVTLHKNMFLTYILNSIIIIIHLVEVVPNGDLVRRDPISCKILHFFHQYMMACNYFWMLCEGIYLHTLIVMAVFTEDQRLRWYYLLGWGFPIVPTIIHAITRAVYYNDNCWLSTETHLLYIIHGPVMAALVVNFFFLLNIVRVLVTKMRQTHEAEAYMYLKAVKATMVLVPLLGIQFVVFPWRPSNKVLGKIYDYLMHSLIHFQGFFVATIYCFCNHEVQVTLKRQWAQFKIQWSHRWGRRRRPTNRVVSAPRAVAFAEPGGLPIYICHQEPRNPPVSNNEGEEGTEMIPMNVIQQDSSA
In kind it is cell-based. The following applies: read-out: Receptor Activation CT cyclase.

The next data set concerns the target calcitonin receptor. The following applies: read-out: Receptor Binding Assay CT.
The conditions of data set [2]: in vivo; cited from earlier work.

On to “DF(P-CH2SO3)MGWNMFGKR KCNTATCATQRLANELVRLQTYPRTNVGSNTY [SEQ ID NO: 398]”, for which, on CGRP receptors (read-out: IC50 in a CGRP receptor binding assay), the pIC50 was 8.36.
On to “KCNTATCATQRLANFLVRSSNNLGPVLPPTNVGSNTY [rat amylin]”, for which the values for the pIC50 (on GLP-1 receptor (read-out: Receptor Binding GLP-1); in data set [1]; at CGRP receptors (read-out: Receptor Binding CGRP)) were less than 6.00, less than 6.00 and 7.68, respectively. In addition, the pEC50 on CT receptor is 6.49.
As to “[Ser117, dLeu119]leptin(116-122)-Amylin(1-7)-[^11,18Arg]sCT(8-27)-Amylin(33-37) [Compound 16]”, the pIC50 at GLP-1 receptor (read-out: IC50, GLP RBA (RIN)) is 6.00.
Turning to “^29GlyGlyGly-Exendin(1-28),hAmylin(1-7)-^11,18Arg-sCt(8-27)-hAmylin(33-37) [Compound 15]”, the pIC50 at calcitonin receptor was 10.52; on CGRP receptors (read-out: Receptor Binding Assay CGRP), 7.20.
For glucagon-like peptide-1 [GLP-1], in data set [2], the metabolic clearance rate is 12 to 13 min and the “plasma half-life of active GLP-1” value is less than 5 min.
